Results reported in PMC12663137 (Nature Communications, 2025).

Sequences of proteins named here, by UniProt entry; tags and fusion partners are left off. A change or cut given only in a name is not applied to a line headed by its entry. Residues count along the entry.
UniProt Q7L0J3, 141-742 F188A limits assumed: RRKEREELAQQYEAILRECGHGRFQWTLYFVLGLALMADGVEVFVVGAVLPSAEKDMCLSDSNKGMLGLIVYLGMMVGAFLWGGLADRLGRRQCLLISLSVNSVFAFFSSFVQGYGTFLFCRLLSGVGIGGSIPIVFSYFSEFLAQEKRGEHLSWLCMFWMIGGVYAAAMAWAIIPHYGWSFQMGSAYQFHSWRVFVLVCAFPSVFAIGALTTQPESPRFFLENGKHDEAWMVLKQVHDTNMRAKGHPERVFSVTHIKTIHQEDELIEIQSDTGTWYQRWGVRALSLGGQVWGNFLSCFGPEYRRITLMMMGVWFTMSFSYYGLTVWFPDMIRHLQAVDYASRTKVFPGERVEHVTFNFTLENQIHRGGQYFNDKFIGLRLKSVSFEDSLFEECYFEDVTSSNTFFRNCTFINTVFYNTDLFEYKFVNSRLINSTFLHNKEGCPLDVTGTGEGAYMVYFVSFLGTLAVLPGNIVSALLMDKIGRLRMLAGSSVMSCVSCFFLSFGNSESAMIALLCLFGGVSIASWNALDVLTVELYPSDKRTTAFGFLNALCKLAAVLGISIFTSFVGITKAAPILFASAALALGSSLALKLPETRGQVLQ
UniProt Q7L0J3, 141-742 limits assumed: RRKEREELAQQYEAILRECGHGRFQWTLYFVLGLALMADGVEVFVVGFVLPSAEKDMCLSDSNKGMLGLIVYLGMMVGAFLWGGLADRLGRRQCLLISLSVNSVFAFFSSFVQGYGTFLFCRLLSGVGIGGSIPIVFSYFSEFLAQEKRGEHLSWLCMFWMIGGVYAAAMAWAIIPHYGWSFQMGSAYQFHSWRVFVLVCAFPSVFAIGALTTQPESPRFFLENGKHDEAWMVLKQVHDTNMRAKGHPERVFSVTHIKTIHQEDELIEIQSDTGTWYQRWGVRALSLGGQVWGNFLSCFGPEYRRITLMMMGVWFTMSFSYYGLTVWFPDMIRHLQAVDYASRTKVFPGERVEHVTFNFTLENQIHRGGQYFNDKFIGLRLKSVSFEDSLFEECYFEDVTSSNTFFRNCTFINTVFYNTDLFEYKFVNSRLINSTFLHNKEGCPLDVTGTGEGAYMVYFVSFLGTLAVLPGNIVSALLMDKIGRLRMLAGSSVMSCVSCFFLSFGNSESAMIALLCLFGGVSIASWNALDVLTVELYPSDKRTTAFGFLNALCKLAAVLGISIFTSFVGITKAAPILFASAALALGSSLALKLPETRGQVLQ
UniProt Q7L0J3, whole entry: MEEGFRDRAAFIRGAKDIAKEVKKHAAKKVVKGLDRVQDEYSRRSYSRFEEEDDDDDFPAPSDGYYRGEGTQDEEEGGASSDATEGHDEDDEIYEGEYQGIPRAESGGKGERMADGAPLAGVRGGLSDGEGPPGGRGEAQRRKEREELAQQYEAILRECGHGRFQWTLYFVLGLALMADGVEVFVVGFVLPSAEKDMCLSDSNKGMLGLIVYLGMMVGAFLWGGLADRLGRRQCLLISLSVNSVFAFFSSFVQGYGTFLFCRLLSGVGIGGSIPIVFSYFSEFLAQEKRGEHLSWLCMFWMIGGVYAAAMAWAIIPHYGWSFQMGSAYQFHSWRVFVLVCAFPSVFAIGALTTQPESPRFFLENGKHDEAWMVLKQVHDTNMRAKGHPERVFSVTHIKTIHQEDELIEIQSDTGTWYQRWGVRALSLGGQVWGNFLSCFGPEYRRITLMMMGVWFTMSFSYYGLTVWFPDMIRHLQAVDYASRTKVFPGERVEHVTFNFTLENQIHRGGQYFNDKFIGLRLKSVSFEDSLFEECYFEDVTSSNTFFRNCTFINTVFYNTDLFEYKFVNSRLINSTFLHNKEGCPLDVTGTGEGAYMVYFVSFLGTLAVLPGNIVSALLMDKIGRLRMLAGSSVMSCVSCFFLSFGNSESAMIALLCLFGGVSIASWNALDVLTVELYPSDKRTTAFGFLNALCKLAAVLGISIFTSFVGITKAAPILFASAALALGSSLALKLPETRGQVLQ

Experiments:
[1] = molecular target: SV2A (Homo sapiens, UniProt Q7L0J3); experiment: Steady-state (saturation) binding of 3H-UCB-J with 30 µM UCB1244283 or 1% DMSO (Fig. 4A); conditions: tested as the radiolabelled form
[2] = molecular target: SV2AEM (Homo sapiens, UniProt Q7L0J3); experiment: Association kinetics of 3H-UCB-J after pre-incubation with UCB1244283 (Fig. 4F); conditions: pre-incubate DMSO, tested as the radiolabelled form
[3] = molecular target: SV2AEM WT or SV2AEM F188A (Homo sapiens, UniProt Q7L0J3, F188A); experiment: Dissociation kinetics of 3H-UCB-J (Fig. 4E); conditions: F188A, DMSO, tested as the radiolabelled form
[4] = molecular target: SV2AEM WT or SV2AEM F188A (Homo sapiens, UniProt Q7L0J3); experiment: Dissociation kinetics of 3H-UCB-J (Fig. 4E); conditions: WT, DMSO, tested as the radiolabelled form

Cc1cnccc1CN1C[C@@H](c2cc(F)c(F)c(F)c2)CC1=O [UCB-J]
3H-UCB-J Binding (f.mol/assay) ([1]; DMSO, 3H-UCB-J 1.56 nM): 2 f.mol/assay and 3 f.mol/assay and 4 f.mol/assay | Kd ([1]; with 30 µM UCB1244283): 11.1 nM | binding capacity ([1]; with 30 µM UCB1244283): 126 fmol/assay | Kd ([1]; without UCB1244283 (1% DMSO)): 19.9 nM | binding capacity ([1]; without UCB1244283 (1% DMSO)): 43.8 fmol/assay | 3H-UCB-J Binding (%) ([2]; 0.5 min): 0.16% and 0.30% and 0.33% | 3H-UCB-J Binding (%) ([2]; 1 min): 0.25% and 0.34% and 0.36% | 3H-UCB-J Binding (%) ([2]; 3.5 min): 0.52% and 0.66% and 0.57% | 3H-UCB-J Binding (%) ([2]; 5 min): 0.59% and 0.58% and 0.69% | 3H-UCB-J Binding (%) ([3]; 2 min): 43.17% and 40.73% | 3H-UCB-J Binding (%) ([3]; 3 min): 49.47% and 40.14% | 3H-UCB-J Binding (%) ([3]; 4 min): 59.39% and 38.71% | 3H-UCB-J Binding (%) ([3]; 5 min): 28.29% and 39.47% | 3H-UCB-J Binding (%) ([3]; 6 min): 20.72% and 31.32% | 3H-UCB-J Binding (%) ([3]; 7 min): 18.54% and 29.80% | 3H-UCB-J Binding (%) ([3]; 8 min): 19.38% | 3H-UCB-J Binding (%) ([3]; 9 min): 13.07% and 16.27% | 3H-UCB-J Binding (%) ([3]; 25 min): 3.74% and 5.67% | 3H-UCB-J Binding (%) ([3]; 30 min): 1.72% and 2.06% | 3H-UCB-J Binding (%) ([3]; 40 min): 4.58% and 2.56% | 3H-UCB-J Binding (%) ([3]; 50 min): 6.94% and 9.54% | 3H-UCB-J Binding (%) ([3]; 60 min): 8.53% and 6.68% | 3H-UCB-J Binding (%) ([3]; 70 min): 4.92% and 4.33% | 3H-UCB-J Binding (%) ([4]; 6 min): 16.81% and 32.44% and 23.64% | 3H-UCB-J Binding (%) ([4]; 7 min): 18.27% and 28.46% and 22.70% | 3H-UCB-J Binding (%) ([4]; 8 min): 14.73% and 29.13% and 23.48% | 3H-UCB-J Binding (%) ([4]; 60 min): 0.00%

Several values for one entry are separate records, joined by “and”; a condition that tells them apart may be missing. Equal entries are not always repeated.
